From patent US20110118181A1 (INSTITUT DE RECHERHES CLINIQUES DE MONTREAL, published 2011) come the findings set out here.

The experiment has as its target T1, PCSK9-V5 (full-length human PCSK9 with C-terminal V5 tag) (human, UniProt Q8NBP7).
T1 construct: Used as conditioned medium of CHO-K1 cells (Far Western, pull-down) or co-expressed in cells (co-IP); The background says PCSK9 is secreted as a prosegment-PCSK9 heterodimer; also called full-length (FL) PCSK9-V5; native PCSK9; not shown: C-terminal V5 tag
Put plainly: Far Western blot of HEK293 lysates.

B1: AnxA2 Δ2-24 (N-terminal deletant, untagged) (other)
chain: MGSVKAYTNFDAERDALNIETAIKTKGVDEVTIVNILTNRSNAQRQDIAFAYQRRTKKELASALKSALSGHLETVILGLLKTPAQYDASELKASMKGLGTDEDSLIEIICSRTNQELQEINRVYKEMYKTDLEKDIISDTSGDFRKLMVALAKGRRAEDGSVIDYELIDQDARDLYDAGVKRKGTDVPKWISIMTERSVPHLQKVFDRYKSYSPYDMLESIRKEVKGDLENAFLNLVQCIQNKPLYFADRLYDSMKGKGTRDKVLIRIMVSRSEVDMLKIRSEFKRKYGKSLYYYIQQDTKGDYQKALLYLCGGDD
As for B1, the binding result is listed as “binds”.
